Chains of the proteins cited; added tags and fusions are not shown. Residues count along the entry.
UniProt F5HJT6, 1-590: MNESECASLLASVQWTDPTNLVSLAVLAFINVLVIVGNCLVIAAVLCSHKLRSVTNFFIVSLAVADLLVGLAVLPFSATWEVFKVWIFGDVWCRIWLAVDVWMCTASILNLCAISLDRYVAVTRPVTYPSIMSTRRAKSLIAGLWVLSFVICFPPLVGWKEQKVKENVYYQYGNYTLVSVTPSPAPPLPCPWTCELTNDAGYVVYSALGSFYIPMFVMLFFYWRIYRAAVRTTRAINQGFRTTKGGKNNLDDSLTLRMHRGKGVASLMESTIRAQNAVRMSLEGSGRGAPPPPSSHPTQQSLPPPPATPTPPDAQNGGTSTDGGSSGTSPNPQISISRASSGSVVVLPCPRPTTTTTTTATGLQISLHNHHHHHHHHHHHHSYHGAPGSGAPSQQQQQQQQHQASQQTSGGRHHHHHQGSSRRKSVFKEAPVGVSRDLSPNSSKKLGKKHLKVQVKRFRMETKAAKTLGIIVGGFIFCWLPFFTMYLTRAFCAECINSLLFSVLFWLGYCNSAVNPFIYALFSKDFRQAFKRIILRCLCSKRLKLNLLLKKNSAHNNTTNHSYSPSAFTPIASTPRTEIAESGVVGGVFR

In paper PMC4253978, “Characterization of the Anopheles gambiae octopamine receptor and discovery of potential agonists and antagonists using a combined computational-experimental approach” (Malaria Journal, 2014):

Target: AgOAR45B (Anopheles gambiae, UniProt F5HJT6)
Conditions: for Agonist Efficiency / Antagonist Efficiency: percent of the 1µM octopamine response; for Ligand Type: classification in the AgOAR45B reporter assay; for EC50: read-out: Agonist EC50

Structure (SMILES)	Agonist Efficiency (100µM compound)	Ligand Type	Antagonistic activity (in the presence of 1 μM octopamine)	IC50 (read-out: Antagonist IC50, value in parentheses, against 1µM octopamine)	Antagonist Efficiency (tested at 50µM because insoluble at 100µM, listed as 9274026)	Antagonist Efficiency (100µM compound)	EC50 (value in parentheses)
CCN(CC)c1ccc(Nc2c(-c3ccc4c(c3)OCC(=O)N4)c(=O)c2=O)c(C)c1	<5%	antagonist	exhibited a dose response for at least two concentrations	13.2 µM	11^b (13.2) %	–	–
CC(C)CC(=O)NC(=S)Nc1cccc(S(=O)(=O)N2CCCCCC2)c1	3%	weak agonist	–	–	–	>90%	27.9 µM
CCN(CC)c1ccc(NC(=O)Cc2ccccc2)cc1	13%	weak agonist	–	–	–	86.2%	3.7 µM

Read-outs that look alike come from different tables or passages of the source. Marks after values point to notes of the source that are not given here.
